Source: patent publication US20260209350A1

Target: T1, recombinant human TREM2-DAP12 fusion protein on cells (human) (UniProt Q9NZC2)
T1 sequence: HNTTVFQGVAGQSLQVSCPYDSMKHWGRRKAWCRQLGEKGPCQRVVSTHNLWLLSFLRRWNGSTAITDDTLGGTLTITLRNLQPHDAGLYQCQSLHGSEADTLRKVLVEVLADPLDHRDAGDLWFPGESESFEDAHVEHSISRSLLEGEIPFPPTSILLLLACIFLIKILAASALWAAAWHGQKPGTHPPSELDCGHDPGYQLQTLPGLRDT
Assay: FACS, hTrem2 cells

MFI: 900 MFI
B1: Ab79 (antibody, human IgG1, V domains shown)
VH: EVQLVESGGGLVQPGGSLRLSCAASGFTFSSYSMNWVRQAPGKGLEWVSYISGSSSTIYYADSVKGRFTISRDNAKNSLYLQMNSLRAEDTAVYYCARGGRRHYGGMDVWGQGTTVTVSS
VL: DIVMTQSPLSLPVTPGEPASISCRSSQSLLHSNGYNYLDWYLQKPGQSPQLLIYLGSHRASGVPDRFSGSGSGTDFTLKISRVEAEDVGVYYCMQALESPRTFGGGTKVEIK
